# Experimental data published in PubChem BioAssay (NCATS).
# The chains behind the UniProt entries cited, without tags or fusion partners.
# UniProt P04637, whole entry, looked up: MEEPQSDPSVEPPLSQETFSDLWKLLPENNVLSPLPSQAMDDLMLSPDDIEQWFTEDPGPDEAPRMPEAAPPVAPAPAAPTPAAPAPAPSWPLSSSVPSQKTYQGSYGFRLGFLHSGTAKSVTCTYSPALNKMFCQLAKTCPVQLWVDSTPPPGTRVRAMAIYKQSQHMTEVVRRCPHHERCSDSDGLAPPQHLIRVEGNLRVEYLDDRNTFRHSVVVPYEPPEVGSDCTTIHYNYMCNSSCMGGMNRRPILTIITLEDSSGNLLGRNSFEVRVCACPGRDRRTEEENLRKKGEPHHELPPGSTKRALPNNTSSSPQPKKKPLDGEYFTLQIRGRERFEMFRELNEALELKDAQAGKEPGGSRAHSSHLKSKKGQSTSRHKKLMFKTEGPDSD
# All entries are inconclusive by the source's own rule. Clear calls are listed elsewhere. The call rests on the fitted dose curve; in most records, active means well fitted curve in the direction sought with a large enough effect; inconclusive means small, poorly fitted or top-dose-only effect, or another doubt; inactive means no such curve, though single readings can be large; an effect the other way counts as inactive or inconclusive.
# What was measured:
# [1] = molecular target: Retinaldehyde dehydrogenase 3 (Homo sapiens) (UniProt P47895); assay: qHTS for Inhibitors of the Aldehyde Dehydrogenase Family (ALDH1A3) Validation screen (AID 2061312); settings: ALDH1A3 enzyme inhibition qHTS validation, fluorescence; further: nearly all actives have a fitted effect of over 45% in size
# [2] = BET inhibitor-based combinations targeting novel dependencies in MECOM-rearranged (r) AML: SET-2 cell line (AID 2202231); settings: SET-2 AML cells viability, CellTiter-Glo luminescence, 48 h; further: nearly all actives have a fitted effect of over 35% in size
# [3] = BET inhibitor-based combinations targeting novel dependencies in MECOM-rearranged (r) AML: MV-4-11 cell line (AID 2202233); settings: MV-4-11 AML viability, CellTiter-Glo luminescence, 48 h; further: nearly all actives have a fitted effect of over 45% in size
# [4] = BET inhibitor-based combinations targeting novel dependencies in MECOM-rearranged (r) AML: HNT-34 cell line (AID 2202234); settings: HNT-34 AML viability, CellTiter-Glo luminescence, 48 h; further: nearly all actives have a fitted effect of over 35% in size
# [5] = BET inhibitor-based combinations targeting novel dependencies in MECOM-rearranged (r) AML: AML-191 cell line (AID 2202236; further: nearly all actives have a fitted effect of over 35% in size); settings: AML-191 viability, CellTiter-Glo luminescence, 48 h
# [6] = BET inhibitor-based combinations targeting novel dependencies in MECOM-rearranged (r) AML: AML-194 cell line (AID 2202237; further: nearly all actives have a fitted effect of over 40% in size); settings: AML-194 (MECOM-r AML) viability, CellTiter-Glo, 48 h
# [7] = molecular target: Cellular tumor antigen p53 (Homo sapiens) (UniProt P04637); assay: Primary qHTS for small molecule compounds that upregulate eGFP-tagged delta133p53alpha (in N-terminal) cells. (AID 2060322); settings: NCI-H358 eGFP-delta133p53alpha fluorescence, 24 h; activation: active compounds read high; further: nearly all actives have a fitted effect of over 75% in size;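 on activation: cells pre-induced with doxycycline then dosed without doxycycline; series mostly up to about 56 µM; 0% = DMSO vehicle and 100% = reference activator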
# [8] = BET inhibitor-based combinations targeting novel dependencies in MECOM-rearranged (r) AML: OCI-AML3 cell line (AID 2202232); settings: OCI-AML3 viability, CellTiter-Glo luminescence, 48 h; further: nearly all actives have a fitted effect of over 35% in size
# Potency means the concentration at half of the fitted maximal effect.
structure (smiles),measurement,setting,value
CN(C(=O)Cc1ccc(Cl)c(Cl)c1)[C@H]1CCCC[C@@H]1N1CCCC1,Potency,[1],inconclusive: 7.08 µM
CN(C(=O)Cc1ccc(Cl)c(Cl)c1)[C@H]1CCCC[C@H]1N1CCCC1,Potency,[1],inconclusive: 1.12 µM
CCn1c(=O)n([C@@H]2CCN(CC3CCCCCCC3)C[C@H]2CO)c2ccccc21,Potency,[2],inconclusive: 26.3 µM
same,Potency,[3],inconclusive: 26.3 µM
same,Potency,[4],inconclusive: 20.9 µM
same,Potency,[5],inconclusive: 18.6 µM
same,Potency,[6],inconclusive: 18.6 µM
CCn1c(=O)n([C@@H]2CCN(CC3CCCCCCC3)C[C@@H]2CO)c2ccccc21,activation,[7],inconclusive: 18%
CN(C)C1(c2ccccc2)CCC2(CC1)OCCc1c2[nH]c2ccc(F)cc12 (configuration not stated),Potency,[2],inconclusive: 0.59 µM
same,Potency,[8],inconclusive: 3.32 µM
same,Potency,[3],inconclusive: 1.18 µM
same,Potency,[4],inconclusive: 26.3 µM
same,Potency,[5],inconclusive: 0.934 µM
same,Potency,[6],inconclusive: 20.9 µM
N[C@@H](Cc1ccc([N+]([O-])(CCCl)CCCl)cc1)C(=O)O,Potency,[7],inconclusive: 43.2 µM
same,Potency,[2],inconclusive: 6.61 µM
same,Potency,[8],inconclusive: 7.42 µM
